Chains of the proteins cited; added tags and fusions are not shown. Residues count along the entry.
UniProt P43220, 24-463 limits assumed: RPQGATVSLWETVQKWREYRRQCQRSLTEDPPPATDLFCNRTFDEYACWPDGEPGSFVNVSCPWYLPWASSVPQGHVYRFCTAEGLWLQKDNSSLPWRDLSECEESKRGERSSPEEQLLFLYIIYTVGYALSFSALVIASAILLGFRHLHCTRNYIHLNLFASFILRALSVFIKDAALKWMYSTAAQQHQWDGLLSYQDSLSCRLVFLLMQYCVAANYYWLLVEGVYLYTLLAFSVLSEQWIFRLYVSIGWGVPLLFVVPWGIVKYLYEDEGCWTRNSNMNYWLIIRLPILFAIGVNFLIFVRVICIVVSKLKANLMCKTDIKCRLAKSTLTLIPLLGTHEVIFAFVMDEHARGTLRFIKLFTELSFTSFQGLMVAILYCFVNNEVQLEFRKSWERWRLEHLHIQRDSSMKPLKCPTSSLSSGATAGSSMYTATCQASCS
UniProt P01275, 100-127 partner limits assumed: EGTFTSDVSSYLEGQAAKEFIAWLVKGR

According to patent US10259823B2, “GLP-1 receptor modulators” (Celgene International II SÀRL, priority 2013, dated 2019):

Biological target: GLP-1R (Homo sapiens, UniProt P43220)
Assay: EC20 GLP-1(9-36) PAM cAMP assay: dose response of compound in the presence of fixed concentration of GLP-1(9-36)
Settings: read-out: EC20 GLP-1(9-36) PAM EC50, GLP-1R CRE-bla CHO-K1 cells, compound dose response with fixed GLP-1(9-36), 30 min at 37° C.
Experimental: EC20 GLP-1(9-36) PAM cAMP assay: dose response of compound in the presence of fixed concentration of GLP-1 (9-36).
GLP-1R CRE-bla CHO-K1 cells cultured in growth medium (DMEM-High glucose, 10% dialyzed FBS, 0.1 mM NEAA, 25 mM Hepes, 100 U/mL penicillin/100 μg/mL streptomycin, 5 μg/mL Blasticidin, 600 μg/mL Hygromycin) were trypsinized and plated in suspension into 384 well white flat bottom plates at 5000 cells/well in 12 μL assay buffer (Hanks Balanced Salt solution, 10 mM hepes, 0.1% BSA, pH 7.4). A 5× compound dose response curve (12-point) was generated in assay buffer containing 1.5 mM IBMX, 4% DMSO. GLP-1(9-36) was diluted to 4.2 μM in assay buffer containing 1.5 mM IMBX and 4% DMSO. The 5× compound dose response was added (3 μL), followed by 0.5 μL of GLP-1(9-36) and cells were incubated for 30 min at 37° C. Direct detection of cAMP was carried out using DiscoveRx HitHunter cAMP kit according to manufacturer's instructions and luminescence was read using a SpectraMax M5 plate reader. Luminescence was converted to total cAMP using a cAMP standard curve and data was analyzed by non-linear regression to determine the EC50 and Emax.
GLP-1(7-36): […]-NH2 (SEQ ID NO: GLP-1(9-36): […]-NH2(SEQ ID NO: 3) GLP-1(7-36) was purchased from GenScript. GLP-1(9-36) was purchased from Biopeptide Co., Inc.

CC(C)(C)c1ccc(C(=O)N[C@@H](Cc2ccc(-c3ncc(-c4ccc5c(c4)CCCN5)cn3)cc2)C(=O)O)cc1
EC50: 5 to 10 µM
